Like-named read-outs stand apart in the source and are kept apart here.
Tests used:
[1] = molecular target: sigma receptor; test: [3H]DTG displacement radioligand binding assay, guinea pig brain membranes; details: for IC50: read-out: IC50 vs. [3H]DTG
[2] = molecular target: sigma receptor (Cavia porcellus, UniProt Q60492); test: biochemical; details: IC50 vs. (+)[3H]3-PPP, Table III; ± SEM; average from 2-4 separate experiments in triplicate

The chains behind the UniProt entries cited, without tags or fusion partners.
UniProt Q60492, whole entry: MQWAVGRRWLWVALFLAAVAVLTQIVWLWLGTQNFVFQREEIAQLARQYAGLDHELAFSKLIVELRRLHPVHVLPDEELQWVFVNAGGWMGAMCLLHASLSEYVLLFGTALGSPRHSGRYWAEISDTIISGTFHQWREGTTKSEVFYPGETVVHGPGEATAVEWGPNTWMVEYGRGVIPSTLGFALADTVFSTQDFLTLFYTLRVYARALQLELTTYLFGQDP

In the case of `CC1C2Cc3ccc(O)cc3C1(C)CCN2CC1CC1` (single isomer, unassigned; (+)) [(+)Cyclazocine, reference compound], the IC50 [1] is reported as 365 ± 25 nM and the IC50 [2] is reported as 47 ± 12 nM.

Compound `CC1C2Cc3ccc(O)cc3C1(C)CCN2CC1CC1` (single isomer, unassigned; (-)) [(-)Cyclazocine, reference compound] has an IC50 [2] of 1000 nM.

“[leu^5 ] enkephalin [reference compound]” was tested, and the “displacement of [3H]DTG” value ([1]; 10 uM) was “no significant displacement”.

In the case of `CN1CCN(CCCN2c3ccccc3Sc3ccc(C(F)(F)F)cc32)CC1` [Trifluoperazine, reference compound], the IC50 ([1]; Table III, ± SEM, average from 2-4 separate experiments in triplicate) is reported as 345 ± 4 nM.

Source: patent publication US5574070A, “Substituted guanidines having high binding to the sigma receptor and the use thereof” (priority 1993, dated 1996)
